# Target: integrin αvβ6 on DX3puroβ6 cells (UniProt P06756 31-1048; P18564 22-788)
# Conditions: one partner purified
binder,measurement,value
"VGDLTYLKKKVART [peptide 1i, VGDLTYLKK(FB)KVART]",DX3puroβ6/DX3puro binding selectivity ratio,3.1 ± 0.8 :1

# — paper PMC6359284, “Identification, Characterization, and Optimization of Integrin αvβ6-Targeting Peptides from a One-Bead One-Compound (OBOC) Library: Towards the Development of Positron Emission Tomography (PET) Imaging Agents” (Molecules, 2019)
